The test concerns the target T1, neuropeptide Y receptor (Homo sapiens, UniProt P25929).
T1 construct: MFα1(1–89) prepro-α-factor leader (N); expressed in transfected cells; host or cells: S. cerevisiae MATa cells
Description: Western blot of DTT-extracted Aga2-HA. In kind it is cell-based. Particulars: increasing concentrations of ligand vs absence. The method, then:
The cells (TOD600=1.5) were pelleted, washed with ice-cold 0.15 M sodium chloride, resuspended in 50 microliters of 25 mM Tris-HCl, pH 8.5, supplemented with 10 mM dithiothreitol (DTI) and incubated for1 hour at 4° C. This DTT incubation step reduced the disulfide bonds between the Aga1 and Aga2 proteins, thereby releasing Aga2 into the extracellular medium. After centrifugation, 50 microliter aliquots of the supernatants were subjected to Western blot analysis. Immunoreactive bands corresponding to Aga2-HA were visualized using HA.11 antibodies (BAbCo) as primary antibodies, sheep anti-mouse IgG conjugated with horseradish peroxidase (Amarsham Pharmacia Biotech) as secondary antibodies, and peroxidase substrate (e.g., tetramethyl benzidine (Pierce)) for a visual readout.

Chains of the proteins cited; added tags and fusions are not shown.
UniProt P25929, whole entry: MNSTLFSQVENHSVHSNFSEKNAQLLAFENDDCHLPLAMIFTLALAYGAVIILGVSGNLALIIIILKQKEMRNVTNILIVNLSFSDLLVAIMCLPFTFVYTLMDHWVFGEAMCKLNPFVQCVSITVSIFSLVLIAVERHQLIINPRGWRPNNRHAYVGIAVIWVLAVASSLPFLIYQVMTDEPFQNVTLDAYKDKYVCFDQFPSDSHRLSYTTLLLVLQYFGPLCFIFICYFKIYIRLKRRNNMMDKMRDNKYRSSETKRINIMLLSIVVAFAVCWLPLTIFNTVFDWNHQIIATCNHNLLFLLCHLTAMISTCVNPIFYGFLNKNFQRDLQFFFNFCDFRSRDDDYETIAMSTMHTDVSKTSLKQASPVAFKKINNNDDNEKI

Consider neuropeptide Y, for which the “expression level of the Aga2 protein” value is “substantial increase”.

The values are drawn from patent US7223533B2, “Cell surface proteins and use thereof as indicators of activation of cellular signal transduction pathways” (priority 1999, dated 2007).
